# Assay results: IntAct's records for PubMed 17577629
# B1: RAC-alpha serine/threonine-protein kinase (Homo sapiens), P31749 (parent)
# chain: MSDVAIVKEGWLHKRGEYIKTWRPRYFLLKNDGTFIGYKERPQDVDQREAPLNNFSVAQCQLMKTERPRPNTFIIRCLQWTTVIERTFHVETPEEREEWTTAIQTVADGLKKQEEEEMDFRSGSPSDNSGAEEMEVSLAKPKHRVTMNEFEYLKLLGKGTFGKVILVKEKATGRYYAMKILKKEVIVAKDEVAHTLTENRVLQNSRHPFLTALKYSFQTHDRLCFVMEYANGGELFFHLSRERVFSEDRARFYGAEIVSALDYLHSEKNVVYRDLKLENLMLDKDGHIKITDFGLCKEGIKDGATMKTFCGTPEYLAPEVLEDNDYGRAVDWWGLGVVMYEMMCGRLPFYNQDHEKLFELILMEEIRFPRTLGPEAKSLLSGLLKKDPKQRLGGGSEDAKEIMQHRFFAGIVWQHVYEKKLSPPFKPQVTSETDTRYFDEEFTAQMITITPPDQDDSMECVDSERRPHFPQFSYSASGTA
# Variants of: B1
# Settings: with setb1_human SETDB1
row,Variant,effect of a mutation on the interaction
1,MSDVAIVKEGWLHKRGEYIKTWRPRYFLLKNDGTFIGYKKRPQDVDQREAPLNNFSVAQCQLMKTERPRPNTFIIRCLQWTTVIERTFHVETPEEREEWTTAIQTVADGLKKQEEEEMDFRSGSPSDNSGAEEMEVSLAKPKHRVTMNEFEYLKLLGKGTFGKVILVKEKATGRYYAMKILKKEVIVAKDEVAHTLTENRVLQNSRHPFLTALKYSFQTHDRLCFVMEYANGGELFFHLSRERVFSEDRARFYGAEIVSALDYLHSEKNVVYRDLKLENLMLDKDGHIKITDFGLCKEGIKDGATMKTFCGTPEYLAPEVLEDNDYGRAVDWWGLGVVMYEMMCGRLPFYNQDHEKLFELILMEEIRFPRTLGPEAKSLLSGLLKKDPKQRLGGGSEDAKEIMQHRFFAGIVWQHVYEKKLSPPFKPQVTSETDTRYFDEEFTAQMITITPPDQDDSMECVDSERRPHFPQFSYSASGTA [E40K],increasing interaction
2,MSDVAIVKEGWLHKRGEYIKTWRPRYFLLKNDGTFIGYKERPQDVDQREAPLNNFSVAQCQLMKTERPRPNTFIIRCLQWTTVIERTFHVETPEEREEWTTAIQTVADGLKKQEEEEMDFRSGSPSDNSGAEEMEVSLAKPKHRVTMNEFEYLKLLGKGTFGKVILVKEKATGRYYAMMILKKEVIVAKDEVAHTLTENRVLQNSRHPFLTALKYSFQTHDRLCFVMEYANGGELFFHLSRERVFSEDRARFYGAEIVSALDYLHSEKNVVYRDLKLENLMLDKDGHIKITDFGLCKEGIKDGATMKTFCGTPEYLAPEVLEDNDYGRAVDWWGLGVVMYEMMCGRLPFYNQDHEKLFELILMEEIRFPRTLGPEAKSLLSGLLKKDPKQRLGGGSEDAKEIMQHRFFAGIVWQHVYEKKLSPPFKPQVTSETDTRYFDEEFTAQMITITPPDQDDSMECVDSERRPHFPQFSYSASGTA [K179M],decreasing interaction
